Values of other authors as cited in EP0662975B1, “2-SUBSTITUTED ADENOSINES WITH A-2 RECEPTOR AFFINITY” (priority 1992, dated 1994).

Tested on: adenosine receptors
Conditions: in vivo; cited from earlier work

In the case of CCCn1c(=O)c2[nH]c(-c3ccc(OCC(=O)NCCN)cc3)nc2n(CCC)c1=O [XAC, amino congener of 8-phenyl-1,3-dipropylxanthine], the “antagonizing the effects of adenosine analogs on heart rate vs blood pressure” value is listed as “much more potent in antagonizing the effects of adenosine analogs on heart rate than on blood pressure”.
